Hits are enriched below; roughly 2% of the tested compounds scored in any of these assays.
Rango dissoc inh – inhibitors of RanGTP-induced Rango-importin beta complex dissociation; O95149+P62826; Biochemical FRET Rango-importin beta, RanGTP-induced dissociation; Potency, µM (top dose mostly 46.1 µM), without a hit: at the top dose activity change, negative = inhibition; hit rate 0.071% among 340,000; calls by dose curve; further: % of control where 0% means no effect; nearly all actives have a fitted effect of over 45% in size
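Rango/importin beta premix (0.1/0.25 uM final), PBS + 1 mM DTT + 0.02% Tween-20 + 0.1% BSA; cpd 5 min RT; FRET pre-read; + RanGTP-RCC1 (0.6 uM Ran, 2 mM GTP, 0.2 uM RCC1); 45 min RT; FRET post-read, ex 430, em 486/530 nm.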
aSyn rescue – inhibitors of alpha-synuclein toxicity in yeast; Yeast expressing alpha-synuclein, growth rescue, BacTiter-Glo, 24 h; Potency, µM (series often up to 46.1 µM), inactives show at the top dose growth rescue (activation), hits mostly activators; hit rate 0.14% among 370,000; further: % of control where 0% means no effect; nearly all actives have a fitted effect of over 65% in size
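Rescue of yeast growth: cells expressing toxic alpha-synuclein, induced in galactose at OD600 0.02, incubated with compound 24 h at 30 C. ATP luminescence quantified growth; inhibitors of toxicity appear as activators.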
TDP-43 yeast inh – TDP-43 toxicity inhibition in yeast. TDP-43 expressing yeast growth rescue, BacTiter-Glo, 24 h. Potency, µM (highest dose often 46.1 µM), for the others: at the highest dose growth rescue (activation), usual class: activators. hit rate 1.8% among 410,000. AID 652104; further: % of control where 0% means no effect; nearly all actives have a fitted effect of over 50% in size
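Luminescence from BacTiter-Glo reports growth of TDP-43-expressing yeast after 24 hr at 30 deg C with compound. Cells were raffinose-pregrown to mid-log, then seeded in galactose medium at OD600=0.02.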
ASM inhibitor – human S-ASM enzyme inhibition. hit rate 0.006% among 340,000. Potency, µM (top dose mostly 57.5 µM), for the others: at the top dose activity change, negative = inhibition, most hits filed as inhibitors. placental ASM, HMU-PC fluorogenic substrate, 60 min
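HMU-PC0 cleavage (9 uM final) by human placental ASM, 60 min at 37 °C following 10 min compound exposure at RT; stopped at pH 10, fluorescence Ex 386/Em 447 nm.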
Rango-impB inh – inhibitors of Rango-importin beta complex formation; hit rate 0.031% among 340,000; Rango CFP/YFP FRET sensor + importin beta, 45 min; AID 540263; Q14974; Potency, µM (series often up to 92.2 µM), without a hit: top-dose inhibition of complex formation; calls by dose curve;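 further: 0% = DMSO wells and 100% = buffer wells lacking importin beta; nearly all actives have a fitted effect of over 15% in size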
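FRET biosensor (snurportin 1 IBB flanked by EYFP and cerulean), 50 nM, with compound 5 min, then 0.125 microM importin beta in PBS, 1 mM DTT, 0.02% Tween-20, 0.1% BSA. CFP/YFP ratio read after 45 min at room temperature; pre-read flags interference.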
Abeta yeast res – restores growth of yeast expressing A-beta42 peptide; yeast expressing A-beta42, growth rescue, OD600, 48 h; response scale: 0% DMSO, 100% iron-clioquinol control; AID 1347071; Potency, µM (top dose mostly 46.1 µM), hits mostly activators; hit rate 0.063% among 410,000; further: nearly all actives have a fitted effect of over 55% in size
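Yeast growth medium received pinned compounds, then yeast cells expressing toxic A-beta were added; plates incubated at 30 C for 48 hr. Growth read as absorbance at 600 nm, normalized to DMSO and equimolar FeCl3 plus clioquinol controls.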
Starred values were filed as active, the others as inactive; i = inactive; ? = inconclusive; · = not tested or not shown; [ ] = remark or other dose. Unless noted, the call rests on the fitted dose curve; in most records, active means well fitted curve in the direction sought with a large enough effect; inconclusive means small, poorly fitted or top-dose-only effect, or another doubt; inactive means no such curve, though single readings can be large; an effect the other way counts as inactive or inconclusive. Potency means the concentration at half of the fitted maximal effect.

No.	SMILES	Rango dissoc inh	Rango-impB inh	ASM inhibitor	TDP-43 yeast inh	aSyn rescue	Abeta yeast res
1	Cc1ccc(C2CC2C(=O)NNC(=S)Nc2cccc(Cl)c2)cc1 (stereo not given)	7%	-1%	-19%	14µM*	-2%	i
2	Cc1ccc(S(=O)(=O)N2CCN(c3nc(-n4ccnc4)nc4ccccc34)CC2)cc1	·	·	·	·	2µM*	·
3	COc1ccc2c(-c3ccccc3)cc(SCC(=O)NC(N)=O)nc2c1	-5%	0%	-1%	3%	-1%	i
4	Cc1cc(SCC(=O)NCC2CCCO2)nc2ccccc12 (stereo not given)	-7%	37µM*	2%	5%	-1%	i
5	COc1ccc2c(-c3ccccc3)cc(SCC(=O)N(C)C)nc2c1	-2%	1%	-1%	22µM*	-17%	i
6	Cc1ccc(-n2c(SCC(=O)NCC3CCCO3)nc3ccccc3c2=O)cc1C (stereo not given)	1%	0%	1%	-11%	0%	i
7	Cc1cc(SCC(=O)NC2CC2)nc2ccccc12	-10%	-3%	-1%	?	7%	i
8	COc1ccc2c(C)cc(SCC(=O)NC3CCCC3)nc2c1	4%	0%	1%	19%	11µM*	i
9	COc1ccccc1CNC(=O)CCc1c(C)nn(-c2ccc(N3CCOCC3)nn2)c1C	·	·	·	24%	·	i
10	CCOc1ccccc1N(C)C(=O)c1cc(S(=O)(=O)NCCc2ccc(Cl)cc2)ccc1F	·	·	·	0%	·	i
11	CCOc1ccccc1NC(=O)CSc1nc2ccccc2c2nc(CCn3cncc3C)nn12	·	·	·	-6%	·	i
12	Cc1cc(NC(=O)c2ccc3c(c2)N(Cc2cccc(Cl)c2)C(=O)c2ccccc2S3(=O)=O)ccc1Br	·	·	·	-7%	5%	i
13	COC(=O)Oc1c(Br)c(=O)oc2ccccc12	2%	0%	0%	3.5µM*	12%	i
14	COc1ccc(-c2onc(C)c2C)cc1S(=O)(=O)N1CCc2ccccc21	·	·	·	22%	·	i
15	O=C(NCCc1csc(-c2cccc(F)c2)n1)c1cccs1	·	·	·	16µM*	·	i
16	O=C(NCCc1csc(-c2ccc(F)cc2)n1)c1cccs1	·	·	·	11µM*	·	i
17	COc1ccc(-c2nc(CCNC(=O)c3cccs3)cs2)cc1	7%	5%	-1%	?	-31%	i
18	Cc1nnc(SCc2ccc(Cl)c(Cl)c2)s1	1%	5%	0%	13µM*	6%	i
19	C=CCc1ccccc1OCCSc1nc(-c2ccccc2F)nc2cc(=O)[nH]n12	·	·	·	11%	·	i
20	CCOc1c2ccoc2nc2c(OC)c(OC)ccc12	-13%	1%	14%	21%	-4%	i
21	C=CCOc1ccc2c(OC)c3ccoc3nc2c1OC	-1%	2%	2%	11µM*	-3%	i
22	COc1ccc(Br)c(C(=O)OCC(=O)NC(=O)NC2CCCC2)c1	-18%	2%	-3%	18µM*	?	i
23	CCC(CC)COC(=O)C(C#N)c1nc2ccccc2nc1N1CCOCC1 (stereo not given)	?	?	-13%	20µM*	6%	i
24	COc1ccc(-n2c(=O)c3ccccc3n(CC(=O)NCCc3ccccc3)c2=O)c(OC)c1	·	·	·	8%	·	i
25	COc1ccc(C(C)=O)cc1COC(=O)c1c(C)noc1C	7%	0%	-2%	16µM*	10%	i
26	COc1ccc(C(C)=O)cc1COC(=O)c1ccc(OCc2c(C)noc2C)cc1	12%	-4%	-3%	12%	4%	i
27	COc1ccc(CNCc2cccc(OC)c2OC)cc1Br	-1%	4%	2%	-4%	-3%	i
28	COc1ccc(CNc2cccc(F)c2)cc1Br	6%	2%	-5%	13µM*	-9%	i
29	CNC(=O)C1CCC(Cn2c(=O)c3sccc3n(Cc3ccc(F)cc3)c2=O)CC1 (stereo not given)	·	·	·	22%	·	i
30	C=CCSc1nnc(CCCCCN2C(=O)c3cccc4cccc(c34)C2=O)o1	5%	?	-11%	22µM*	-9%	i
31	CCOC(=O)CSc1nnc(CCCCCN2C(=O)c3cccc4cccc(c34)C2=O)o1	14%	-1%	-4%	3%	-1%	i
32	COC(=O)Cc1ccc2sc(-c3ccccc3)nc2c1	-23%	2%	7%	16%	0%	i
33	COc1cc(-c2nc3ccccc3s2)ccc1O	?	?	i	18%	-10%	i
34	O=C(O)Cc1ccc2sc(-c3ccccc3)nc2c1	13%	7%	4%	3.2µM*	-27%	i
35	O=C(Nc1cccc(-c2nc3ccccc3s2)c1)C1=COCCO1	13%	4%	-6%	20µM*	-1%	i
36	CCOc1cc(-c2nc3ccccc3s2)ccc1O	?	?	i	13µM*	3%	i
37	CC(=O)Nc1cccc(-c2nc3ccccc3s2)c1	-6%	0%	-1%	8.9µM*	8%	i
38	Cc1ccc(CC(=O)NO)cc1	·	·	·	·	-10%	·
39	CCOC(=O)N1CCN(C(=O)c2cc(COc3cccc(C(F)(F)F)c3)on2)CC1	42%	2%	-1%	10µM*	5%	i
40	C/C(=N/OC(=O)c1ccccc1Br)c1ccc(C)cc1	1%	?	7%	14µM*	-18%	i

The closing six compounds of the part before open the next one:
No.	SMILES	Rango dissoc inh	Rango-impB inh	ASM inhibitor	TDP-43 yeast inh	aSyn rescue	Abeta yeast res
35	O=C(Nc1cccc(-c2nc3ccccc3s2)c1)C1=COCCO1	13%	4%	-6%	20µM*	-1%	i
36	CCOc1cc(-c2nc3ccccc3s2)ccc1O	?	?	i	13µM*	3%	i
37	CC(=O)Nc1cccc(-c2nc3ccccc3s2)c1	-6%	0%	-1%	8.9µM*	8%	i
38	Cc1ccc(CC(=O)NO)cc1	·	·	·	·	-10%	·
39	CCOC(=O)N1CCN(C(=O)c2cc(COc3cccc(C(F)(F)F)c3)on2)CC1	42%	2%	-1%	10µM*	5%	i
40	C/C(=N/OC(=O)c1ccccc1Br)c1ccc(C)cc1	1%	?	7%	14µM*	-18%	i
41	CSc1ccc(CCNC(=O)c2cc3cc(S(=O)(=O)N4CCCCC4)ccc3n2C)cc1	·	·	·	17%	·	i
42	Cc1ccc2occ(CC(=O)Nc3ccc(S(N)(=O)=O)cc3)c2c1	·	·	·	-20%	·	i
43	Cc1ccc2occ(CC(=O)Nc3c(C)cccc3C)c2c1	·	·	·	13µM*	·	i
44	CCOc1ccccc1NC(=O)Cc1coc2ccc(C)cc12	-12%	0%	-5%	·	13µM*	?
45	Cc1c(NC(=O)C(F)(F)F)ccc2nc3c(=O)n(C)c(=O)n(C)c3nc12	·	·	·	23%	·	i
46	O=C(COc1ccc2c(c1)CCC2)NCc1ccccc1	-3%	0%	-2%	11µM*	9%	i
47	Cc1cccc(C(=O)N2CCc3cc(CNC(=O)CSc4ccccc4)ccc32)c1	·	·	·	0%	·	i
48	Cc1cccc(OCC(=O)NCc2ccc3c(c2)CCN3C(=O)c2ccccc2)c1	·	·	·	25µM*	·	i
49	Cn1nnnc1SCCCNCc1cc(Br)ccc1OCc1ccccc1	·	·	·	0%[9.22 µM]	·	i
50	CCc1ccc(NC(=O)C2CCC(CNS(=O)(=O)c3cccs3)CC2)cc1 (stereo not given)	·	·	·	6%	·	i
51	C[C@H]1C(c2ccc(F)cc2)=NN(c2ccccc2)[C@@H]1CO	?	?	i	18µM*	18%	?
